Reference: PubChem BioAssay AID504326 (The Scripps Research Institute Molecular Screening Center, 2011)
The entries are a selection whose mix differs from that of the whole data set. Calls of active or inactive are those of the source. Rule as the data show it: active = activation above about 18%; inactive = the rest.

Amino acid sequences for entries named in this document (tags omitted).
UniProt P35372, whole entry, looked up: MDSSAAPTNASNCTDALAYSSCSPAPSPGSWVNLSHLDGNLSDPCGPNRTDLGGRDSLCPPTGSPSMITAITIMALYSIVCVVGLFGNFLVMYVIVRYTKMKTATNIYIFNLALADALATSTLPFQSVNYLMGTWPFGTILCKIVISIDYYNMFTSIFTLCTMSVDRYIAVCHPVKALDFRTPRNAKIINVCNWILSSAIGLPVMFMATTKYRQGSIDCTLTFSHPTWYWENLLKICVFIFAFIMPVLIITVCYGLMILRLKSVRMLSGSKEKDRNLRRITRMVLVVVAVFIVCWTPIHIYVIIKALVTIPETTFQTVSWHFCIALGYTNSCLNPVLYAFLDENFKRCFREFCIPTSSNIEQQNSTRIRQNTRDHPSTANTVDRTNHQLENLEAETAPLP
UniProt P41143, whole entry, looked up: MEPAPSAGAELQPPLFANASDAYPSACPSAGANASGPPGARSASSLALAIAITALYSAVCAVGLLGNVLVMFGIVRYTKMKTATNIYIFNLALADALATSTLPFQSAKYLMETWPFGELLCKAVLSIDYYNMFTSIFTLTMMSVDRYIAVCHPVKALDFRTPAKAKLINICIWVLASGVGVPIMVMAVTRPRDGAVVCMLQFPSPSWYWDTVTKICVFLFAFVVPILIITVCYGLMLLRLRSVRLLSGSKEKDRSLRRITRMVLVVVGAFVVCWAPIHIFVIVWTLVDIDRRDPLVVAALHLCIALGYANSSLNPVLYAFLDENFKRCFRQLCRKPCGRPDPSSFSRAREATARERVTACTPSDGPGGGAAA

What follows are compounds tested against Mu-type opioid receptor (Homo sapiens) + Delta-type opioid receptor (Homo sapiens) (UniProt P35372+P41143) (assay: agonists of OPRM1-OPRD1 heterodimerization, primary screen, cell-based, luminescence (AID 504326;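 also: 0% = vehicle-treated cells and 100% = reference agonist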)). Conditions: cells, at 9.3 µM, stronger effect = higher value.

Compound | activation
O=C(Cn1cnc2ccccc21)Nc1ccc2c(c1)OCCCO2 | inactive: -0.04%
Cc1nnc(NC(=O)Cn2cnc3c2c(=O)n(C)c(=O)n3C)s1 | inactive: -1.37%
CCN(CC)CCn1c(=N)n(CC(=O)c2ccc(C)cc2)c2ccccc21 | inactive: 9.89%
O=P(Nc1ccccn1)(c1ccc(Br)cc1)c1ccc(Br)cc1 | inactive: -2.23%
CCC(=O)Nc1ccc(NC(=O)/C=C/c2ccc(Cl)cc2)cc1 | inactive: -0.1%
NC(=O)Cn1c2[n+](c3ccccc31)CC(O)CS2 (centres undefined) | inactive: -3.24%
CC(O)CNc1nc2ccccc2n1CC(=O)NCC(F)(F)F (centres undefined) | inactive: -2.23%
O=C(CSc1nc2ccccc2n1CC(=O)N1CCCC1)N1CCN(C(=O)c2ccco2)CC1 | inactive: -0.62%
C[C@H](NC(=O)N1CCn2c1nc1ccccc12)C(=O)NCCc1ccccc1 | inactive: -3.49%
CCN(CC)CCn1c(NCc2ccccn2)nc2ccccc21 | inactive: 0.16%
CCN(CC)CCn1c(N)nc2ccccc21 | inactive: -0.28%
Cc1ccc(C(C(=O)NC2CCCCC2)N(Cc2ccco2)C(=O)Cn2cnc3ccccc32)cc1 (centres undefined) | inactive: 2.88%
Cn1c(=O)c2c(nc(CN3CCN(C(c4ccccc4)c4ccccc4)CC3)n2CC(N)=O)n(C)c1=O | inactive: 0.37%
CCOC(=O)c1cccc(NC(=O)Cn2cnc3c2c(=O)n(C)c(=O)n3C)c1 | inactive: -1.26%
CC(=O)NC(C)c1nc2ccccc2n1CC(=O)NC(C)CCc1ccccc1 (centres undefined) | inactive: -0.92%
CCc1cccc(C)c1NC(=O)CSc1nc2ccccc2n1CC(=O)N(C)C | inactive: -1.91%
CCN1C(=O)CC(n2c(C)nc3ccccc32)C1=O (centres undefined) | inactive: -2.07%
Cn1c(=O)[nH]c(=O)c2c1nc(N1CCCCCC1)n2CC(N)=O | inactive: -2.53%
Nc1nonc1-c1nc2ccccc2n1CC(=O)N/N=C/c1ccc(-c2ccccc2C(=O)O)o1 | inactive: -2.57%
COc1ccc(-c2nn(-c3ccccc3)cc2C(=O)N2c3ccc(C)cc3C3CN(C)CCC32)cc1 (centres undefined) | inactive: 0%
COc1ccc(CNc2nc3ccccc3n2CCN2CCCCC2)cc1 | inactive: -1.25%
COCCN1CCn2c(nc3cc(NS(C)(=O)=O)ccc32)C1 | inactive: -1.47%
Cc1cccc(OCC(O)Cn2c(=N)n(CCN3CCCCC3)c3ccccc32)c1 (centres undefined) | inactive: 1.02%

Compound | activation
O=C(Cn1cnc2ccccc21)N/N=C/c1ccco1 | inactive: -2.71%
COc1ccc(OC)c(CNc2nc3ccccc3n2CCN2CCCCC2)c1 | inactive: -0.65%
O=C(Cn1cnc2ccccc21)Nc1ccccc1-c1ccccc1 | inactive: -0.47%
Cc1ccc2c(c1)C1CN(C)CCC1N2S(=O)(=O)c1ccc(C(C)C)cc1 (centres undefined) | inactive: 1.71%
CCSc1nc2ccccc2n1CC(N)=O | inactive: -1.88%
CCC(C)N(C(=O)Cn1c(Cl)nc2c1c(=O)n(C)c(=O)n2C)C1CCS(=O)(=O)C1 (centres undefined) | inactive: -1.01%
Brc1cccc(CNc2nc3ccccc3n2CCN2CCCCC2)c1 | inactive: -1.5%
COC(=O)[C@H](Cc1ccccc1)NC(=O)Cn1cnc2c(NCc3ccccc3)ncnc21 | inactive: -3.56%
Cn1c(=O)c2c(nc(CN3CCN(Cc4ccccc4)CC3)n2CCN2CCOCC2)n(C)c1=O | inactive: -1.83%
CC(NC(=O)Cn1c(NCCO)nc2ccccc21)c1ccccc1 (centres undefined) | inactive: -2.03%
CSCC[C@H](NC(=O)N1CCn2c1nc1ccccc12)C(=O)NC1CC1 | inactive: -2.55%
O=C(NC1CCCCC1)C(c1ccccc1)N(Cc1ccco1)C(=O)Cn1cnc2ccccc21 (centres undefined) | inactive: -0.33%
Cc1ccc(C(=O)Cn2c(=N)n(CCN3CCOCC3)c3ccccc32)cc1 | inactive: 5.44%
CCOc1ccc(CNc2nc3ccccc3n2CCN2CCOCC2)cc1 | inactive: 0.43%
CCN(CC)c1ccc(NC(=O)Cn2c(C(C)NC(=O)c3ccc(C)cc3)nc3ccccc32)cc1 (centres undefined) | inactive: 1.78%
O=S(=O)(c1ccccc1)c1nnn2c1nc(NC1CCN(Cc3ccccc3)CC1)c1cc(Cl)ccc12 | active: 19.2%
COc1ccc(Cc2nnc(NC(=O)Cn3cnc4c3c(=O)n(C)c(=O)n4C)s2)cc1OC | inactive: -0.32%
CCCn1c(=O)c2c(nc3n2CCN3Cc2ccco2)n(C)c1=O | inactive: 0.37%
O=S(=O)(c1ccc(Cl)cc1)N1CCn2c1nc1ccccc12 | inactive: -0.3%
CSCC[C@H](NC(=O)N1CCn2c1nc1ccccc12)C(=O)NCc1ccc2c(c1)OCO2 | inactive: -1.14%
CC(/C=N/NC(=O)Cn1cnc2ccccc21)=C\c1ccccc1 | inactive: -0.51%
CCOC(=O)Cn1c(=O)oc2cc(S(=O)(=O)N3CCn4c3nc3ccccc34)ccc21 | inactive: 0.03%
CC(C)[C@H](NC(=O)N1CCn2c1nc1ccccc12)C(=O)N[C@@H](Cc1ccccc1)C(=O)O | inactive: -2.67%

Compound | activation
Cc1ccc(-c2csc(N3CCC[C@@H]3C(=O)NCCn3c(-c4ccncc4)nc4ccccc43)n2)cc1 | inactive: 3.75%
O=C(Cn1cnc2ccccc21)N/N=C/c1ccccc1 | inactive: -1.28%
CN(C)Cc1ccc(-c2nc3cccc4c3n2CCNC4=O)cc1 | inactive: -3.15%
COc1ccc(-c2ccc3c(c2)[C@@H]2C[C@H](N(C)C(=O)C(C)(C)C)[C@H]([C@H](C)O)C(=O)N2CC3)cc1 | inactive: 0.63%
CCCC(=O)Nc1ccc2c(c1)nc1n2CCN(C2CCCCC2)C1 | inactive: -1.27%
O=C(Cn1c(CO)nc2ccccc21)Nc1cc(C(F)(F)F)ccc1N1CCOCC1 | inactive: 0.15%
Cc1ccc(NC(=O)Cn2c(/C=C/c3ccccc3)nc3ccccc32)cc1C | inactive: 2.72%
CCN(C(=O)Cn1c(Cl)nc2c1c(=O)n(C)c(=O)n2C)C1CCCCC1 | inactive: -1.27%
O=C(CCCCCNC(=O)N1CCn2c1nc1ccccc12)NCc1ccccc1 | inactive: -3.87%
CCNC(=O)Cn1cnc2c1c(=O)n(C)c(=O)n2C | inactive: 1.63%
CSc1nc2ccccc2n1CC(=O)Nc1cc(C(F)(F)F)ccc1N1CCOCC1 | inactive: -3.93%
CCOc1ccc(CCNC(=O)Cn2c(-c3nonc3N)nc3ccccc32)cc1OCC | inactive: -1.78%
CCN(CC)CCn1c(NCc2nc3ccccc3n2Cc2ccccc2)nc2ccccc21 | inactive: 15.3%
c1nnnn1CCn1cnnn1 | inactive: -1.58%
CCC(=O)Nc1cccc(C(=O)/C=C/c2ccccc2)c1 | inactive: 2.81%
CCN(CC)C(=O)CSc1nc2ccccc2n1CC(=O)N1CCN(c2ccccc2OC)CC1 | inactive: 0.81%
CCN(CC)CCn1c(=N)n(CC(O)c2ccc(OC)c(OC)c2)c2ccccc21 (centres undefined) | inactive: 3.97%
O=C(c1cccs1)N1CCn2c1nc1ccccc12 | inactive: -1.84%
CC(C)C[C@H](NC(=O)N1CCn2c1nc1ccccc12)C(=O)NC1CC1 | inactive: -1.89%
COc1ccc(NC(=O)CN(C)C(=O)Cn2cnc3c2c(=O)n(C)c(=O)n3C)cc1 | inactive: -0.97%
CC1CCCC(C)N1C(=O)Cn1c(SCC(=O)Nc2ccc3c(c2)OCO3)nc2ccccc21 (centres undefined) | inactive: -0.91%
c1ccc2c(c1)nc1n2CCN1CCN1CCCC1 | inactive: -3.03%
Cn1c(=O)c2c(ncn2CC(=O)N2CCN(S(=O)(=O)c3ccccc3)CC2)n(C)c1=O | inactive: -1.47%

Compound | activation
CCOCCn1c(=O)c2c(nc3n2CCN3c2ccc(C)cc2)n(C)c1=O | inactive: -2.6%
Cc1ccccc1Oc1ccc2c(c1)[C@@H]1C[C@H](N(C)C(=O)NC3CCCCC3)[C@H]([C@H](C)O)C(=O)N1CC2 | inactive: -0.63%
COc1ccc(OCC(O)Cn2c(=N)n(CCN3CCCCC3)c3ccccc32)cc1 (centres undefined) | inactive: -2.12%
C[C@@H](NC(=O)Cn1cnc2c(OCc3ccccc3)ncnc21)c1cccc2ccccc12 | inactive: 2.79%
N#CCCN1CCn2c1nc1ccccc12 | inactive: -1.33%
O=C(Cn1cnc2c(OCc3ccccc3)ncnc21)NCC1CCCO1 (centres undefined) | inactive: -3.31%
Cn1c(=O)c2ncn(CC(=O)N/N=C/c3ccco3)c2n(C)c1=O | inactive: -0.99%
c1ccc(CNc2nc3ccccc3n2CCN2CCOCC2)nc1 | inactive: -1.23%
O=P(Nc1nccs1)(c1ccccc1)c1ccccc1 | inactive: -2.41%
Cn1c(=O)n(CC(=O)N2CCOCC2)c2ccccc21 | inactive: -1.3%
CC(C)C(=O)NC(Sc1ccccc1)C(Cl)(Cl)Cl (centres undefined) | inactive: 2.73%
CCC(C(=O)NC1CCCCC1)n1c(SCc2cccc(F)c2)nc2ccncc21 (centres undefined) | inactive: 0.69%
CC(/C=N/NC(=O)Cn1cnc2c1c(=O)n(C)c(=O)n2C)=C\c1ccccc1 | inactive: -1.63%
CC(C)c1ccccc1NC(=O)Cn1c(-c2ccccc2Cl)nc2ccccc21 | inactive: -2.3%
CC(C)C[C@H](NC(=O)N1CCn2c1nc1ccccc12)C(=O)N[C@H](Cc1ccccc1)C(=O)O | inactive: -2.35%
CCc1ccc(NC(=O)Cn2cnc3c(=O)n(C)c(=O)n(C)c32)cc1 | inactive: 0.73%
CCS(=O)(=O)c1nc2ccccc2n1CC(=O)N1CCCCC1 | inactive: -4.14%
O=C(Cn1cnc2ccccc21)Nc1ccc(C(=O)O)cc1 | inactive: -0.8%
O=C(C1COc2ccccc2O1)N1CCn2c(nc3ccccc32)C1 (centres undefined) | inactive: -1.28%
COc1ccccc1OCC(O)Cn1c(=N)n(CCN2CCCCC2)c2ccccc21 (centres undefined) | inactive: -1.76%
